Patent US7294472B2, “Method for identifying modulators of G protein coupled receptor signaling” (Caden Biosciences, priority 2001, dated 2007)

Amino acid sequences for entries named in this document (tags omitted).
UniProt P02699, whole entry: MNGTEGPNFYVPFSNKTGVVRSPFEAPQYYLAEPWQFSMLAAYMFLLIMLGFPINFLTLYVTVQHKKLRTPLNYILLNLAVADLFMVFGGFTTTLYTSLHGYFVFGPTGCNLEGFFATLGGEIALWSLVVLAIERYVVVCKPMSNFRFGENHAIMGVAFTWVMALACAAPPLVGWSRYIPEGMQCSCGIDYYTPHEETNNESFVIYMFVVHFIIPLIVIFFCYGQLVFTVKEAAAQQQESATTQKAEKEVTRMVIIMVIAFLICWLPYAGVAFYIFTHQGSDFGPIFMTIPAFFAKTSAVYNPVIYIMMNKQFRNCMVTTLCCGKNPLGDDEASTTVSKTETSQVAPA

Columns and labels:
rhodopsin [1] = molecular target: T1, rhodopsin (Bos taurus, UniProt P02699); assay: Competition ELISA: effect of small molecules on binding of MBP-8 to activated rhodopsin; conditions: for enhancement of MBP-8 binding to EDTA-washed rhodopsin (in words): MBP-8 binding curve with added compound; for EC50: read-out: Binding of MBP-8 EC50, effect of small molecule on the binding of MBP-8 to MII
Excerpt: Competition ELISA assays were employed to screen a small molecule library (a 10,000 compound library representative of ChemDiv's Diverse Collection of drug-like molecules) for compounds that bind activated rhodopsin and increase/decrease the binding of MBP-8 high affinity peptide fusion protein. MBP 8 was selected based on its mid-range affinity. […] These types of screens may be used with libraries of any size, therefore it is possible to increase the size of the compound library by 10 fold or greater and continue screening for small molecule hits in a similar manner.
Two representative 96-well plates in which light-activated-rhodopsin-bound MBP-8 high-affinity peptide fusion proteins were assayed for competitive binding by 80 different compounds. Experiments were done in duplicate, and the results of the two separate plates averaged.
Dose response curves of MII (FIG. 24) indicate that both PL—0302 R3.C4 (σ), and heterotrimeric Gt (ν) stabilize the active form of rhodopsin. EDTA-washed rhodopsin (5 μM) was incubated in a 50 mM HEPES buffer, pH 8.2, with 100 mM NaCl, 1 mM MgCl2, and 1 mM DTT at 5.3° C., and “extra” MII was measured. For compounds that enhanced MBP-8 binding over 25% using the color coded readout, dose studies were performed to generate EC50 curves. Table XXII below provides the calculated EC50 for metarhodopsin II stabilization of each compound.
Small molecules also were tested for their ability to enhance the binding of MBP-8. PELM6 (the MBP control) and MBP-8 were plated on 96 well plates that contained EDTA-washed rhodopsin. A small molecule compound library was added, and the amount of pELM6 or MBP-8 that remained bound was measured. Standard methods were used.

rhodopsin [2] = molecular target: T1, rhodopsin; assay: "extra MII" assay: stabilization of metarhodopsin II
Excerpt: Rhodopsin can be measured spectrophotometrically in many of its conformational states. The high affinity, biologically active rhodopsin state can be easily differentiated from its precursor, MI, by the “extra” MII assay. See Example 35. This assay relies on the observation that under conditions of high pH and low temperature, MII is stabilized in the presence of Gt and can be spectrophotometrically measured. The ability of the C-terminal peptide to stabilize Meta II in the same manner as the heterotrimeric Gt, provides the tools to investigate the structural basis of the interaction of G proteins with the agonist binding sites of activated receptors.
For the “extra MII” assay, EDTA-washed rhodopsin (Example 5; 5 μM) is incubated in a 50 mM HEPES buffer, pH 8.2, with 100 mM NaCl, 1 mM MgCl2, and 1 mM DTT at 5.3° C., in the absence or presence of varying concentrations of Gt340-350 analogs or Gt. […] A flash of light bleaching 10% of the rhodopsin is presented and after a 1 min incubation, a second spectrum is measured and the difference in spectrum calculated. “Extra” MII is calculated as the difference between the absorbance at 390 and 440. Dose response curves of MII stabilization by αt340350 (λ), mutant α340-350K341L(ν), and heterotrimeric Gt (v) were analyzed by non-linear regression using the program GraphPad PRISM and are shown in FIG. 23. […]

isolated rods = assay: Light response (membrane current) of isolated rods of dark-adapted salamander retina; conditions: 5 μM compound; depending on intensity of light flash
Experimental: To test the effects of the small molecules in cells, light response experiments were carried out on isolated rods from the dark-adapted retina of a salamander. Single rods were isolated by shredding a small piece of retina. Photoreceptors were mechanically isolated from the dark-adapted retinas and placed in a gravity-fed superfusion chamber on the stage of an inverted microscope. Membrane currents were recorded with a suction electrode as described by Baylor et al., (Baylor et al., J. Physiol. (Lond.). 288:589-611, 1979; Baylor et al. J. Physiol. (Lond.). 288:589-611, 1979) in Ringer solution containing 120 mM NaCl, 2.0 mM KCl, 2 mM NaHCO3, 1.6 mM MgCl2, 1.0 mM CaCl2, 10 mM glucose, and 3 mM HEPES, pH 7.6, as described by Rieke and Baylor, Biophys. J. 71:2553-2572, 1996. Membrane current collected by the suction electrode was amplified, low-pass filtered at 20 Hz (3 dB point; 8-pole Bessel low-pass), digitized at 100 Hz and stored on a computer for subsequent analysis. Light responses were elicited by 10-msecond flashes of 50-500 nm light. […]
Light stimuli were delivered from a dual beam optical bench. […] Salamander L, S, and ultraviolet-sensitive cones have peak sensitivities at 600 nm, 430 nm, and 360 nm (Makino and Dodd, J. Gen. Physiol. 108:27-34, 1996) and are readily identified by the relative amplitudes of their responses to 620 nm, 440 nm, and 380 nm lights. […]

| enhancement of MBP-8 binding to EDTA-washed rhodopsin (in words) (rhodopsin [1]) | EC50 (rhodopsin [1]) [µM] | stabilization of MII (in words) (rhodopsin [2]) | SMILES | increase of peak light response (change in current) (isolated rods) |
| --- | --- | --- | --- | --- |
| ability to enhance MBP-8 binding | 5.12 |  | CCN1C(=O)C2C(c3ccccc3O)NC(Cc3c[nH]c4ccccc34)(C(=O)O)C2C1=O (stereo not shown) |  |
| ability to enhance MBP-8 binding | 0.96 |  | Cc1cc(O)c(C(=O)c2ccccc2)cc1Br |  |
| ability to enhance MBP-8 binding | 10.1 |  | Cc1ccc(S(=O)(=O)Nc2c(-c3ccccc3)c3cc(Cl)ccc3[nH]c2=O)cc1 |  |
| ability to enhance MBP-8 binding | 11.9 | stabilize the active form of rhodopsin | CC(=NNc1ccccc1C(=O)O)c1ccc(F)c(F)c1 | 20%-50% |
